Protein sequences, listed by entry. Tags and fused reporters are not part of them.
UniProt P21728, whole entry: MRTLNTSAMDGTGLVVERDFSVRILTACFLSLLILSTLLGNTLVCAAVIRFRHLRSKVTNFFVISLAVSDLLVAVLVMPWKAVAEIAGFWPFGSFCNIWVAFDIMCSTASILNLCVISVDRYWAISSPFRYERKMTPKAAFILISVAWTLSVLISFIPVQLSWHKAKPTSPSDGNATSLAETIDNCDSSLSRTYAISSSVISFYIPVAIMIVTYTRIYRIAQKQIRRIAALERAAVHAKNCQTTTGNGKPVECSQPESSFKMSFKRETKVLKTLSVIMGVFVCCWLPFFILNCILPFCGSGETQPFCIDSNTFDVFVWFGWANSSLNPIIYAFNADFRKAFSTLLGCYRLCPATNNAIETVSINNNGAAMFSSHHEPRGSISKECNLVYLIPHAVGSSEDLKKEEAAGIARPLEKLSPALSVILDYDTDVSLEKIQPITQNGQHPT

In ChEMBL document CHEMBL5380874, “Transformation of a Dopamine D2 Receptor Agonist to Partial Agonists as Novel Antipsychotic Agents” (J Med Chem, 2023):

Key:
D(1A) dopamine receptor [1] = molecular target: T1, D(1A) dopamine receptor (Homo sapiens, UniProt P21728); experiment: Partial agonist activity at Dopamine D1 receptor (unknown origin) expressed in HEK293T co-expressing G-alphaS assessed as maximal cAMP accumulation incubated for 5 mins by BRET assay relative to control; assay type: functional, cell-based
D(1A) dopamine receptor [2] = molecular target: T1, D(1A) dopamine receptor; experiment: Partial agonist activity at Dopamine D1 receptor (unknown origin) expressed in HEK293T coexpressing beta-arrestin-2 assessed as maximal cAMP accumulation incubated for 5 mins by beta-arrestin recruitment based BRET assay relative to control; assay type: functional, cell-based

Compound | Emax (D(1A) dopamine receptor [1]) | Emax (D(1A) dopamine receptor [2])
COc1cccc2c3c(oc12)CN(CCCCOc1ccc2c(c1)NC(=O)CC2)CC3 | inactive | inactive
COc1cccc2c3c(oc12)CN(CCCCOc1ccc2ccc(=O)[nH]c2c1)CC3 | inactive | inactive

Active and inactive are the calls of the source. The calls are words filed in the database; no cut-off is given here.
